Key:
[1] = biological target: T1, NAD-dependent protein deacetylase sirtuin-1 (Homo sapiens, UniProt Q96EB6)
T1 sequence (Q96EB6 whole entry): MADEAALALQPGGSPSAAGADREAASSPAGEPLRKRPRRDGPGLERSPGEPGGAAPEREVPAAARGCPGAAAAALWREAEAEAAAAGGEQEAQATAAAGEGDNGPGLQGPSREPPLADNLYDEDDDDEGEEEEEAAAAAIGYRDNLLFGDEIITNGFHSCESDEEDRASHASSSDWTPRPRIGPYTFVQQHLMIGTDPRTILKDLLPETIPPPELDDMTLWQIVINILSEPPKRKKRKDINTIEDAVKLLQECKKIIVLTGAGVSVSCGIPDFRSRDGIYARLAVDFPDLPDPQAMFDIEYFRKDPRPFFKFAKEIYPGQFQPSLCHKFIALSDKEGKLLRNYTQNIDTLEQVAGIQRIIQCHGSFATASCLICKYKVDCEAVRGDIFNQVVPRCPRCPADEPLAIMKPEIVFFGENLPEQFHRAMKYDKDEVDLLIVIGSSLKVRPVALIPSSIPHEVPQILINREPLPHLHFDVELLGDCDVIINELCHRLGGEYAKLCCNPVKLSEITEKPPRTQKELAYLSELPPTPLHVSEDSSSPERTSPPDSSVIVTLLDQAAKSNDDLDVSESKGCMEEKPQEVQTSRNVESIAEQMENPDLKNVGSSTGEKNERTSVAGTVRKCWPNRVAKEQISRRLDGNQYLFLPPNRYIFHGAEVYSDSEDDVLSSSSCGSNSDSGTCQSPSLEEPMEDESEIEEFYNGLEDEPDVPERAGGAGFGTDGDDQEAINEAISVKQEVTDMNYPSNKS

[2] = biological target: T1, NAD-dependent protein deacetylase sirtuin-1; remark: listed apart in the source

NC(=O)C1CCCc2c1[nH]c1ccccc21 (configuration not stated)
IC50 [1]: 1.47 µM
IC50 [2]: 3.3 µM

From ChEMBL document CHEMBL1140425, “Discovery of indoles as potent and selective inhibitors of the deacetylase SIRT1” (J Med Chem, 2005)
